Test results as given in ChEMBL document CHEMBL1201862, “PubChem BioAssay data set” (2004).
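Values below derive from 48-hour exposures of cells grown in 96-well plates, with endpoints linearly interpolated between the two concentrations bracketing the appropriate inhibition level. GI50 = concentration required for 50% inhibition of growth.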 Calls of active or inactive are those of the source. Cut-off read from the data, not from the text of the source: active = GI50 up to about 1.1 µM and inactive = higher.

Key:
Experiment in all cases: growth of human tumour cells (NCI), 48 h
[1] = system: IGROV-1
[2] = system: CAKI-1
[3] = system: HT-29
[4] = system: DU-145
[5] = system: 786-0
[6] = system: NCI-H226
[7] = system: BT-549
[8] = system: EKVX
[9] = system: MDA-MB-231
[10] = system: HCT-116
[11] = system: SK-MEL-28
[12] = system: SK-MEL-5
[13] = system: SK-MEL-2
[14] = system: HOP-92
[15] = system: NCI-H460
[16] = system: MDA-N
[17] = system: ACHN
[18] = system: NCI-H23
[19] = system: KM12
[20] = system: TK-10
[21] = system: OVCAR-3
[22] = system: MDA-MB-435
[23] = system: CCRF-CEM
[24] = system: Malme-3M
[25] = system: PC-3
[26] = system: SW-620
[27] = system: MCF7
[28] = system: SNB-75
[29] = system: OVCAR-8
[30] = system: OVCAR-5
[31] = system: UACC-257
[32] = system: A549
[33] = system: HOP-62
[34] = system: LOX IMVI
[35] = system: HCT-15
[36] = system: Hs-578T
[37] = system: HL-60
[38] = system: SR
[39] = system: COLO 205
[40] = system: U-251
[41] = system: MOLT-4
[42] = system: NCI-H522
[43] = system: NCI/ADR-RES
[44] = system: UO-31
[45] = system: OVCAR-4
[46] = system: SK-OV-3
[47] = system: SN12C
[48] = system: K562
[49] = system: HCC 2998
[50] = system: SNB-19
[51] = system: SF-268
[52] = system: M14
[53] = system: RXF 393
[54] = system: SF-295
[55] = system: RPMI-8226

## CC[C@H](C)[C@H](NC(=O)[C@H](CCCCN)NC(=O)[C@@H](NC(=O)[C@H](CCC(N)=O)NC(=O)[C@@H](N)CCCNC(=N)N)[C@@H](C)CC)C(=O)N[C@@H](Cc1c[nH]c2ccccc12)C(=O)N[C@@H](Cc1ccccc1)C(=O)N[C@@H](CCC(N)=O)C(=O)N[C@@H](CC(N)=O)C(=O)N[C@@H](CCCNC(=N)N)C(=O)N[C@@H](CCCNC(=N)N)C(=O)N[C@@H](CCSC)C(=O)N[C@@H](CCCCN)C(=O)N[C@@H](Cc1c[nH]c2ccccc12)C(=O)N[C@@H](CCCCN)C(=O)N[C@@H](CCCCN)C(=O)O
[1]
  GI50: inactive: > 50 µM
[2]
  GI50: inactive: > 50 µM
[3]
  GI50: inactive: > 50 µM
[4]
  GI50: inactive: > 50 µM
[5]
  GI50: inactive: > 50 µM
[6]
  GI50: inactive: > 50 µM
[7]
  GI50: inactive: > 50 µM
[8]
  GI50: inactive: > 50 µM
[9]
  GI50: inactive: > 50 µM
[10]
  GI50: inactive: > 50 µM
[11]
  GI50: inactive: > 50 µM
[12]
  GI50: inactive: > 50 µM
[13]
  GI50: inactive: > 50 µM
[14]
  GI50: inactive: > 50 µM
[15]
  GI50: inactive: > 50 µM
[16]
  GI50: inactive: > 50 µM
[17]
  GI50: inactive: > 50 µM
[18]
  GI50: inactive: > 50 µM
[19]
  GI50: inactive: 44.1 µM
[20]
  GI50: inactive: > 50 µM
[21]
  GI50: inactive: > 50 µM
[22]
  GI50: inactive: > 50 µM
[23]
  GI50: inactive: > 50 µM
[24]
  GI50: inactive: > 50 µM
[25]
  GI50: inactive: > 50 µM
[26]
  GI50: inactive: > 50 µM
[27]
  GI50: inactive: > 50 µM
[28]
  GI50: inactive: > 50 µM
[29]
  GI50: inactive: > 50 µM
[30]
  GI50: inactive: > 50 µM
[31]
  GI50: inactive: > 50 µM
[32]
  GI50: inactive: > 50 µM
[33]
  GI50: inactive: > 50 µM
[34]
  GI50: inactive: > 50 µM
[35]
  GI50: > 50 µM
[36]
  GI50: inactive: > 50 µM
[37]
  GI50: inactive: 40.1 µM
[38]
  GI50: inactive: > 50 µM
[39]
  GI50: inactive: > 50 µM
[40]
  GI50: inactive: > 50 µM
[41]
  GI50: inactive: > 50 µM
[42]
  GI50: inactive: > 50 µM
[43]
  GI50: inactive: > 50 µM
[44]
  GI50: inactive: > 50 µM
[45]
  GI50: inactive: > 50 µM
[46]
  GI50: inactive: > 50 µM
[47]
  GI50: inactive: > 50 µM
[48]
  GI50: inactive: > 50 µM
[49]
  GI50: inactive: > 50 µM
[50]
  GI50: inactive: > 50 µM
[51]
  GI50: inactive: 43 µM
[52]
  GI50: inactive: > 50 µM
[53]
  GI50: inactive: > 50 µM
[54]
  GI50: inactive: > 50 µM
[55]
  GI50: inactive: 21.3 µM
